These results are taken from patent US20220194939A1, “Novel compounds and methods of use treating fructose-related disorders or diseases” (Colorado Research Partners, LLC, priority 2019, published 2022).

Amino acid sequences for entries named in this document (tags omitted).
UniProt P50053, whole entry: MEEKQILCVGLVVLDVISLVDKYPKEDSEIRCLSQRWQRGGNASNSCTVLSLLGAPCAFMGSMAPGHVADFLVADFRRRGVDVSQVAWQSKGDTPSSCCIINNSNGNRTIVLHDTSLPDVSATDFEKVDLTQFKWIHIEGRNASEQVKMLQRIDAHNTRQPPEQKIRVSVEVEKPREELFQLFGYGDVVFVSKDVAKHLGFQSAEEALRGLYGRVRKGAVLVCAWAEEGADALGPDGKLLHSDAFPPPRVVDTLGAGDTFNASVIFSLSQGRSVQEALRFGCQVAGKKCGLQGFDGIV

The test deals with KHK (Homo sapiens, UniProt P50053). The experiment in a line: coupled enzyme assay for KHK activity. The conditions noted are these: read-out: KHK, IC50; purified human recombinant KHK, PK/LDH coupled assay, A340 at 25° C., 0.1 mM ATP, 0.2 mM fructose; isoform (KHK-C or KHK-A) not given; tested form: hydrochloride. The source says: Specific coupled enzyme screening assays were developed for KHK-C and KHK-A using recombinant proteins. Purified human recombinant KHK-C and KHK-A were produced using by expression in E. coli BL-21 (DE3) using IPTG induction as a His-tagged fusion proteins and purified using Ni-NTA chromatography on His-Trap FF columns. For KHK-C, the coding region from NCBI refseq number NM_006488 was inserted at the Nde I site of pET28a(+) vector, which puts it downstream from an amino-terminal (His)6 tag and a thrombin cleavage site. The same was done for KHK-A using the coding regions from NCBI refseq number NM_000221.2. The protein was expressed in BL-21 (DE3) using IPTG induction and purified using Ni-NTA (GE His Trap FF) column. The protein was washed with 100 column volumes, eluted with 3 column volumes, and dialyzed with HEPES, pH 7.4 buffers containing 20, 500, and 0 mM imidazole, respectively. The dialysate was concentrated by ultrafiltration (10kD MWCO) to >15 mg/mL protein. The protein prep was >95% pure on SDS-PAGE and the molecular weight was confirmed by relative mobility to be 33,730 Da (34,826 expected).
The assay uses the product of the KHK reaction, ADP, to drive a signal measured in real time for measuring the reaction rate. […] The disappearance of NADH is measured kinetically by monitoring A340 at 25° C. for 15 minutes. […]

Turning to `Cc1cccc(-n2ncc3ccc(NC(=O)C(O)CN)cc32)c1` (stereo not shown), the 50% inhibitory concentration (IC50) was 520 nM.
